Reference: PubChem BioAssay (EPA / NIEHS)
This is a selection; strong and weak results do not stand in their true shares. Activity calls are given as the source filed them. How the source made its calls: active means hit-call score of the fitted dose curve at least 0.9, where 1 is the maximum; inactive means score below 0.9.

What follows are molecules tested on CYP3A5 (gene 1577) (assay: LTEA_HepaRG_CYP3A5: Life Technologies and Expression Analysis (LTEA) Assay for CYP3A5 using HepaRG (AID 2283493)). Conditions: actives raise or lower the signal; mRNA level, 48 h.
Outline: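 mRNA levels were quantified by qRT-PCR on Fluidigm arrays and normalized to three housekeeping genes. Differentiated HepaRG cells received 48 h exposure (top 100 uM, half-log steps, 0.5% DMSO vehicle, duplicate); bidirectional fitting versus DMSO.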

**Q.** Which outcome does the source give for `Cc1c([N+](=O)[O-])cccc1[N+](=O)[O-]` here?
**A.** Its outcome is “inactive”.

**Q.** How did the outcome turn out when `Cc1ccc([N+](=O)[O-])cc1[N+](=O)[O-]` was run?
**A.** Its outcome is “inactive”.

**Q.** How did the outcome turn out when `CC(C)OP(C)(=O)OC(C)C` was run?
**A.** The outcome was “inactive”.

**Q.** How did the outcome turn out when `Cc1cccc([N+](=O)[O-])c1[N+](=O)[O-]` was run?
**A.** The outcome was “inactive”.

**Q.** How did the outcome turn out when `O=[N+]([O-])c1cccc([N+](=O)[O-])c1` was run?
**A.** Its outcome is “inactive”.

What follows are molecules tested on Fatty Acid-Binding Protein 1 (FABP1), FABP1 (gene 2168) (assay: LTEA_HepaRG_FABP1: Life Technologies and Expression Analysis (LTEA) Assay for Fatty Acid-Binding Protein 1 (FABP1) using HepaRG (AID 2283494)). Conditions: actives raise or lower the signal; mRNA level, 48 h.
Outline: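 FABP1 expression by TaqMan qRT-PCR, normalised to three housekeeping genes, in HepaRG cells after 48 h chemical treatment. Eight-point half-log series topping at 100 uM in 0.5% DMSO, duplicates; gain or loss fitted relative to vehicle.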

**Q.** How did the outcome turn out when `Cc1c([N+](=O)[O-])cccc1[N+](=O)[O-]` was run?
**A.** The outcome was “inactive”.

**Q.** With `Cc1ccc([N+](=O)[O-])cc1[N+](=O)[O-]` as the molecule, how does the outcome read?
**A.** The outcome was “inactive”.

**Q.** For `CC(C)OP(C)(=O)OC(C)C`, which outcome is on record?
**A.** Its outcome is “inactive”.

**Q.** `Cc1cccc([N+](=O)[O-])c1[N+](=O)[O-]` was tested. Which outcome did it give?
**A.** The outcome was “inactive”.

**Q.** How did the outcome turn out when `O=[N+]([O-])c1cccc([N+](=O)[O-])c1` was run?
**A.** The outcome was “inactive”.

The molecules below were run on Cytochrome P450 4A22 (Homo sapiens) (UniProt Q5TCH4) (assay: LTEA_HepaRG_CYP4A22: Life Technologies and Expression Analysis (LTEA) Assay for Cytochrome P450 4A22 (CYP4A22) using HepaRG (AID 2283495)). Conditions: actives raise or lower the signal; mRNA level, 48 h.
Outline: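 Differentiated HepaRG cells in serum-free induction medium exposed 48 h in duplicate to eight half-log concentrations up to 100 uM in 0.5% DMSO. CYP4A22 mRNA quantified by TaqMan qRT-PCR, normalized to ACTB, GAPDH and POLR2A; bidirectional fit versus DMSO.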

**Q.** `Cc1c([N+](=O)[O-])cccc1[N+](=O)[O-]` was tested. Which outcome did it give?
**A.** Its outcome is “inactive”.

**Q.** `Cc1ccc([N+](=O)[O-])cc1[N+](=O)[O-]` was tested. Which outcome did it give?
**A.** The outcome was “inactive”.

**Q.** How did the outcome turn out when `CC(C)OP(C)(=O)OC(C)C` was run?
**A.** The outcome was “inactive”.

**Q.** For `Cc1cccc([N+](=O)[O-])c1[N+](=O)[O-]`, which outcome is on record?
**A.** Its outcome is “inactive”.

**Q.** With `O=[N+]([O-])c1cccc([N+](=O)[O-])c1` as the molecule, how does the outcome read?
**A.** Its outcome is “inactive”.

These molecules were tested on Cytochrome P450 7A1 (Homo sapiens) (UniProt P22680) (assay: LTEA_HepaRG_CYP7A1: Life Technologies and Expression Analysis (LTEA) Assay for Cytochrome P450 7A1 (CYP7A1) using HepaRG (AID 2283496)). Conditions: actives raise or lower the signal; mRNA level, 48 h.
Procedure: LTEA_HepaRG is a cell based, multiplexed-readout assay that uses HepaRG, a human liver cell line, with measurements taken at 48 hours after chemical dosing on a 96-well plate.LTEA_HepaRG_CYP7A1 is one of 102 assay component(s) measured in the LTEA HepaRG cell culture assay. It is a marker of NR mediated metabolism.Data from the assay component LTEA_HepaRG_CYP7A1 was analyzed into 1 endpoint. This assay endpoint, LTEA_HepaRG_CYP7A1, was analyzed with bidirectional fitting relative to DMSO as the negative control and baseline of activity. Using a type of inducible reporter, measures of mRNA induction for gain or loss-of-signal activity can be used to understand regulation of transcription factor activity. To generalize the intended target to other relatable targets, this assay endpoint is annotated to the cyp intended target family, where the subfamily is xenobiotic metabolism.
A total of 1060 chemcials from the ToxCast library were tested in eight-point concentration-response experiments. Cell culture and cytotoxicity assays were conducted at Thermo Fisher Scientific's Custom Services facility (Madison, WI). A single lot of human HepaRG cells (Thermo Fisher Scientific, Frederick, MD) was used for the cell culture experiments. 96-well format collagen type I coated plates of human HepaRG cells were prepared using established methods. Briefly, cryopreserved HepaRG cells were thawed, plated at a density of approximately 100,000 cells/well in HepaRG Thaw, Plate, and General Purpose media (HPRG770, Thermo Fisher Scientific), and incubated for 48 hours. 0.5% DMSO was selected as vehicle control to balance the requisite need of DMSO in HepaRG cultures to maintain differentiation (for example, baseline metabolism, proportions of hepatocytes vs. cholangiocytes), while enabling further hepatic receptor pathway activation (for example, PXR and CAR) in response to chemical exposure. 48 hours after plating, the culture medium was replaced with HepaRG Serum-Free Incudtion Media. Cells were exposed to each test chemical in duplicate and maintained in CO2 incubators for another 48 hours. Chemical plates were thawed to room temperature and 200x concentrations of treatment groups were prepared. 8-point conentration-reponse curves were made with the highest exposure at 100 uM, followed by half-log dilutions, all in 0.5% DMSO. Each test plate contained variouse controls, induction positive controls (1mM phenobarbital), cytotoxicity positive controls ([…] aflatoxin B1), vehicle controls (0.5% DMSO), and total lysis controls (0.5% DMSO). Cell morphology images were taken using an Essen IncuCyte FLR automated microscope, with six 96-well plates imaged in about 24 minutes. Images were captured and exported and JPEG files. Spent culture media was transfered to black-well plates for the LDH assay, and remaining media was sorted at -80 C for later use. Cells were treated with RLT buffer and frozen until shipped for gene expression analysis. Total RNA was isolated from the cell suspension in 75 uL of Buffer RLT (Qiagen, Germantown, MD 20874) by Quintiles/Expression Analysis (Durham, NC) using a custom isolation procedure. Total RNA from each plate well was transferred to a preamplification plate. Fluidigm's 96.96 Dynamic ArrayTM (Fluidigm, Amsterdam, the Netherlands) technology was used for gene expression analyses by quantitative reverse transcription polymerase chain reaction (qRT-PCR, performed by Quintiles/Expression Analysis, Durham, NC)89. […]

**Q.** Which outcome does the source give for `Cc1c([N+](=O)[O-])cccc1[N+](=O)[O-]` here?
**A.** Its outcome is “inactive”.

**Q.** `Cc1ccc([N+](=O)[O-])cc1[N+](=O)[O-]` was tested. Which outcome did it give?
**A.** The outcome was “inactive”.

**Q.** For `CC(C)OP(C)(=O)OC(C)C`, which outcome is on record?
**A.** The outcome was “inactive”.

**Q.** `Cc1cccc([N+](=O)[O-])c1[N+](=O)[O-]` was tested. Which outcome did it give?
**A.** The outcome was “inactive”.

**Q.** `O=[N+]([O-])c1cccc([N+](=O)[O-])c1` was tested. Which outcome did it give?
**A.** The outcome was “inactive”.

The molecules below were run on Glutathione S-Transferase (GSTA2), GSTA2 (gene 2939) (assay: LTEA_HepaRG_GSTA2: Life Technologies and Expression Analysis (LTEA) Assay for Glutathione S-Transferase (GSTA2) using HepaRG (AID 2283497)). Conditions: actives raise or lower the signal; mRNA level, 48 h.
Outline: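 GSTA2 transcript levels came from Fluidigm TaqMan qRT-PCR normalized to three housekeeping genes, fitted in both directions against DMSO. HepaRG cultures received chemicals for 48 h in serum-free induction medium (0.5% DMSO), 8 half-log concentrations up to 100 uM, duplicate.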

**Q.** `Cc1c([N+](=O)[O-])cccc1[N+](=O)[O-]` was tested. Which outcome did it give?
**A.** Its outcome is “inactive”.

**Q.** `Cc1ccc([N+](=O)[O-])cc1[N+](=O)[O-]` was tested. Which outcome did it give?
**A.** The outcome was “inactive”.

**Q.** Which outcome does the source give for `CC(C)OP(C)(=O)OC(C)C` here?
**A.** Its outcome is “inactive”.

**Q.** How did the outcome turn out when `Cc1cccc([N+](=O)[O-])c1[N+](=O)[O-]` was run?
**A.** Its outcome is “inactive”.

**Q.** With `O=[N+]([O-])c1cccc([N+](=O)[O-])c1` as the molecule, how does the outcome read?
**A.** Its outcome is “inactive”.
